Data published in US11591336B2 (Relay Therapeutics, Inc., priority 2017, dated 2023).

Chains of the proteins cited; added tags and fusions are not shown.
UniProt Q06124, whole entry: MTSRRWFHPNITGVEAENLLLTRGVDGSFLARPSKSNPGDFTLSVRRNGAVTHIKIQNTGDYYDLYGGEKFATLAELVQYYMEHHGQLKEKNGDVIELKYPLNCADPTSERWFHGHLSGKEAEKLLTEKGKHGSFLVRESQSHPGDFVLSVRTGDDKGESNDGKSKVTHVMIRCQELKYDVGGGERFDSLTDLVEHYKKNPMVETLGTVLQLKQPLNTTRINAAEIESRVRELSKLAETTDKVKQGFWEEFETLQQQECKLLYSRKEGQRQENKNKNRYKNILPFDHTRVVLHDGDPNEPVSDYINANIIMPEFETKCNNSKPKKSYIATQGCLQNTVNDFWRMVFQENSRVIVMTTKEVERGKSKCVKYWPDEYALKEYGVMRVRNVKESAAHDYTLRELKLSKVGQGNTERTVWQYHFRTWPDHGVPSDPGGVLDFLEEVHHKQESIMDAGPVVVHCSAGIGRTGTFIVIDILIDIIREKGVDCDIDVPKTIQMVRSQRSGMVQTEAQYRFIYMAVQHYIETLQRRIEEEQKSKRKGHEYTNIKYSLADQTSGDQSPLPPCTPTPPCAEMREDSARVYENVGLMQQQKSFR

Target: SHP2 (Homo sapiens (Human), UniProt Q06124)
Test: SHP2 Allosteric Inhibition Assay (DiFMUP prompt fluorescence)
Type: biochemical
Conditions: read-out: SHP2 IC50, 0.25 nM SHP2 activated with 0.5 μM peptide IRS1_pY1172(dPEG8)pY1222, substrate DiFMUP 100 μM, 25° C.

SMILES	IC50 [nM]	IC50 (tested form: HCl) [nM]
C[C@@H]1OCC2(CCN(c3cnc4c(N5CCN(C6CCOCC6)c6ncccc65)n[nH]c4n3)CC2)[C@@H]1N	< 1000	–
C[C@@H]1OCC2(CCN(c3cnc4c(N5CCCc6nc(-c7nccs7)ccc65)n[nH]c4n3)CC2)[C@@H]1N	–	< 1000

Like-named read-outs stand apart in the source and are kept apart here.
